EP0392423A2, “Substituted 1,4-7-10-tetraazacyclotridecanes, method for their preparation and use of the same for labelling substances with radionuclides” (priority 1989, dated 1990)

System: Transferrin
Conditions: human, serum
Experimental: Bei diesen Vergleichsversuchen wurde ¹¹¹In sowohl mit den bekannten 12- und 14-Ring-Cyclamen als auch mit dem erfindungsgemäßen Cyclam aus Beispiel 1 komplexiert und anschließend jeweils der ¹¹¹In-Austausch gegen Transferrin - ein bekanntermaßen gutes Komplexierungsmittel - in humanem Serum bei 37°C untersucht.

In the case of Tetradecantetraacetat [TETA], the “¹¹¹In-Austausch gegen Transferrin” value (12 h) is reported as “ca. 10%” and the “¹¹¹In-Austausch gegen Transferrin” value (120 h) is reported as > 30%.

Where two headings read alike, the source gives them in different places.
